Experimental data taken from patent US20260042755A1, “GPR6 INVERSE AGONISTS” (MapLight Therapeutics, Inc., priority 2022, published 2026).

By UniProt entry, the sequences of proteins in these tests, tags left out.
UniProt P46095, whole entry: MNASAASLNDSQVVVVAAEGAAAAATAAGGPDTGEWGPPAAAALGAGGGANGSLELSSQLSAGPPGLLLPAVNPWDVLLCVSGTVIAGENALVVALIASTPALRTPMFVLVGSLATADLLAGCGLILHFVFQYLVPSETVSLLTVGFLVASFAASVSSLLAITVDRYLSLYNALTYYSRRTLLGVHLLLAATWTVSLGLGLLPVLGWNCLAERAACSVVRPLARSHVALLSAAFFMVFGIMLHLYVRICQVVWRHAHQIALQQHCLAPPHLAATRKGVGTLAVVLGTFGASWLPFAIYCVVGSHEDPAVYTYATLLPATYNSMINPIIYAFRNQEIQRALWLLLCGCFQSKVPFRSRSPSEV
UniProt P46089, whole entry: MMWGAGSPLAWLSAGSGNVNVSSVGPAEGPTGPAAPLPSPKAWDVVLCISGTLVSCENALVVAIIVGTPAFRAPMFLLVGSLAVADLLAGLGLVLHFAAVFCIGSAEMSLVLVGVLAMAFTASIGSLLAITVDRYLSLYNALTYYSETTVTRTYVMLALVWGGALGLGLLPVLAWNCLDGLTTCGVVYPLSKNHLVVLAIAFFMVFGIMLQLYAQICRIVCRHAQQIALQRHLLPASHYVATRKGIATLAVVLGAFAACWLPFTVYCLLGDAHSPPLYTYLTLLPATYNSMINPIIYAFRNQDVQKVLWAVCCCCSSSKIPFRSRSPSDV

Assays:
GPR6 = GPR6 (Homo sapiens, UniProt P46095); experiment: GPR6 antagonist functional cAMP assay (LANCE Ultra cAMP TR-FRET, CHO cells stably expressing GPR6); conditions: read-out: GPR6 IC50
Procedure: (§1) Example 56. GPR6 and GPR3 Antagonist Functional cAMP Assay
(§2) CHO cells stably expressing GPR6 or GPR3 receptors were dissociated from cell culture flasks and incubated for 2 h at 37° C. in a 10 cm dish in a humidified incubator. Cells were dissociated, counted to have 1e6 cells/mL (4.5e6 cells needed/384-well plate), washed once in starved media, than in D-PBS and finally suspended in assay buffer (Krebs-Ringer Bicarbonate Buffer with 1800 mg/L glucose, without calcium chloride and sodium bicarbonate (Sigma) in the presence of 0.1% BSA and 150 μM of Ro 20-1724 Phosphodiesterase inhibitor).
(§3) Cells in suspension from above were plated in 384-well white Optiplate (PerkinElmer) at 10,000 cells/well/10 μl, briefly centrifuged prior direct addition of compounds ([…]) in 10 mM DMSO using a Tecan D300e Digital Dispenser, final DMSO in each well was normalized to 0.1%. […]
(§4) To measure cAMP levels, LANCE® Ultra cAMP assay (Perkin Elmer), a homogeneous time-resolved fluorescence resonance energy transfer (TR-FRET) immunoassay was used following manufacturer's recommendations. Plates were shaken for 1 h at room temperature before reading on a Tecan InfiniteF200Pro multi-mode plate reader using standard FRET settings (Excitation 340 nm, Emission at 615 nm). FRET values were reported as readings obtained at 665 nm. […]

GPR3 = GPR3 (Homo sapiens, UniProt P46089); experiment: GPR3 antagonist functional cAMP assay (LANCE Ultra cAMP TR-FRET, CHO cells stably expressing GPR3); conditions: read-out: GPR3 IC50
Procedure: as §1, §2, §3, §4

IC50 (GPR6): < 100 nM | IC50 (GPR3): 100 to 1000 nM
SMILES: CCn1cc(-c2nc3cc(C(O)C(C)(C)O)ncc3nc2N2CCN(Cc3ccc(F)cc3F)CC2)cn1 (single isomer, unassigned)
